Assay results reported in patent publication US9340523B2, “Certain dipeptidyl peptidase inhibitors” (FOCHON PHARMA, INC., priority 2009, dated 2016).

By UniProt entry, the sequences of proteins in these tests, tags left out. Residues count along the entry.
UniProt P28843, 37-760 limits assumed: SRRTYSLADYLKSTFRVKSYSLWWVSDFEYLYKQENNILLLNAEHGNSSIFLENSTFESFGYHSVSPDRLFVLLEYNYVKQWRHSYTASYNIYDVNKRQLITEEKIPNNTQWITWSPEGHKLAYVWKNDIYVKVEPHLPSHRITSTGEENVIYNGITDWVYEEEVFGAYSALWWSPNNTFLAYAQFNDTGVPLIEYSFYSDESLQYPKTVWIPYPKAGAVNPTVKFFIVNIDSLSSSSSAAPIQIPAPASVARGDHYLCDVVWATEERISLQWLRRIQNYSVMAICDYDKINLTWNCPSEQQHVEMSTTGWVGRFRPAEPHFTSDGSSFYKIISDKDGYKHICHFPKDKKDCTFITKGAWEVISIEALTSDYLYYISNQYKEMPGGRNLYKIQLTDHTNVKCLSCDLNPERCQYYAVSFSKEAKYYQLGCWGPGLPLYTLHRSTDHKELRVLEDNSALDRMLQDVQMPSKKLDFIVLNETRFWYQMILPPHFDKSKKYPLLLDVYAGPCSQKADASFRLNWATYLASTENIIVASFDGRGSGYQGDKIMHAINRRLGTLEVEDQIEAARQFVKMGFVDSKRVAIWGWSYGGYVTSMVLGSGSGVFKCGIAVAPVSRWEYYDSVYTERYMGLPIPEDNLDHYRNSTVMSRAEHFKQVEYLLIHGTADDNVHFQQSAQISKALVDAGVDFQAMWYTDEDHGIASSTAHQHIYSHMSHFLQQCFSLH

Biological target: plasma DPP-4 activity (Mus musculus, UniProt P28843)
Test: in vivo
Conditions: po

Question: For Cn1c(=O)cc(N2CCC[C@@H](N)C2)n(Cc2ccccc2C#N)c1=O [Alogliptin], which activity at 3 mg/kg (read-out: DPP-4 Relative activity %, 1 hr after dosing) is on record?
Answer: 18.8 ± 1%

Question: What about the activity at 3 mg/kg (read-out: DPP-4 Relative activity %, 2 hrs after dosing) of the same compound?
Answer: 19.9 ± 1.3%

Question: And the activity at 3 mg/kg (read-out: DPP-4 Relative activity %, 3 hrs after dosing)?
Answer: 22.3 ± 1.5%

Question: What about the activity at 3 mg/kg (read-out: DPP-4 Relative activity %, 5 hrs after dosing) of the same compound?
Answer: 25.6 ± 1.6%

Where two headings read alike, the source gives them in different places.
